Experimental data from patent US12577232B2, “N-heterocycle substituted tryptamine derivatives and methods of using” (ENVERIC B[…] INC., priority 2024, dated 2026).

The chains behind the UniProt entries cited, without tags or fusion partners.
UniProt P28223, whole entry: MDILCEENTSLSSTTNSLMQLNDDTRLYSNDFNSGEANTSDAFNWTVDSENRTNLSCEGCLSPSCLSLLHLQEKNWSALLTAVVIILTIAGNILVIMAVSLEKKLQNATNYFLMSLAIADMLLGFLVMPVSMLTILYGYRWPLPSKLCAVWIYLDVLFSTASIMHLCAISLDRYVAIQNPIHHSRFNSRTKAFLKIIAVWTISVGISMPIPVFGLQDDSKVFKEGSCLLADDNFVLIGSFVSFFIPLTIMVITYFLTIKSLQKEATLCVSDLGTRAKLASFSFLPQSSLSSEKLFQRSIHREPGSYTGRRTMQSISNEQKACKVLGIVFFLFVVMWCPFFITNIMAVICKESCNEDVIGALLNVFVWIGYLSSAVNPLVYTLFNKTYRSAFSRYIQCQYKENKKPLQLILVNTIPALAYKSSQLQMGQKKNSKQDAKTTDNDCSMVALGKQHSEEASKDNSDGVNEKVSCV

Target: T1, 5-HT2A receptor (Homo sapiens, UniProt P28223)
T1 construct: purchased PerkinElmer ES-313-M400UA
Assay: 5-HT2A receptor radioligand competition assay (SPA, [3H]ketanserin)
Format: binding
Details: 1 nM [3H]ketanserin; membranes containing 5-HT2A

Work on “5-bromo-dimethyltryptamine [Compound 5-Br-DMT, reference compound]” yielded a Ki of 0.36 µM.
